The values below are quoted from earlier work in patent publication US5891845A, “Drug delivery systems utilizing liquid crystal structures” (Fuisz Technologies Ltd., priority 1997, dated 1999).

For the series the following is noted: beyond which liquid crystalline phases may form.

For the substance “d-α-tocopheryl polyethylene glycol 1000 succinate [Vitamin E TPGS]”, the “concentration up to which solutions with water form” value is “approximately 20 % wt”.
